Experimental data from PMC9962186, “Metal–Peptide Complexes with Antimicrobial Potential for Cotton Fiber Protection” (Journal of Functional Biomaterials, 2023).

System: HEp-2 cells
Assay: Cytotoxicity assay (neutral red uptake)
Type: cell-based
Settings: HEp-2 monolayer cells, 48 h, 37 °C, 5% CO2, neutral red uptake, OD 540 nm

NC(=O)c1ncn([C@@H]2O[C@H](CO)[C@@H](O)[C@H]2O)n1 [Ribavirin]
Cytotoxicity CC50 in HEp-2 Cells (Cu-Peptide, and reference ribavirin): 2058 µM/mL
